Drawing on ChEMBL document CHEMBL3856250, “Discovery of 6-Fluoro-5-(R)-(3-(S)-(8-fluoro-1-methyl-2,4-dioxo-1,2-dihydroquinazolin-3(4H)-yl)-2-methylphenyl)-2-(S)-(2-hydroxypropan-2-yl)-2,3,4,9-tetrahydro-1H-carbazole-8-carboxamide (BMS-986142): A Reversible Inhibitor of Bruton's Tyrosine Kinase (BTK) Conformationally Constrained by Two …” (J Med Chem, 2016), this text covers IC50 for four molecules.

Chains of the proteins cited; added tags and fusions are not shown. Lines headed by an entry give the natural chain unless they say otherwise; changes in a name come on top.
UniProt Q06187: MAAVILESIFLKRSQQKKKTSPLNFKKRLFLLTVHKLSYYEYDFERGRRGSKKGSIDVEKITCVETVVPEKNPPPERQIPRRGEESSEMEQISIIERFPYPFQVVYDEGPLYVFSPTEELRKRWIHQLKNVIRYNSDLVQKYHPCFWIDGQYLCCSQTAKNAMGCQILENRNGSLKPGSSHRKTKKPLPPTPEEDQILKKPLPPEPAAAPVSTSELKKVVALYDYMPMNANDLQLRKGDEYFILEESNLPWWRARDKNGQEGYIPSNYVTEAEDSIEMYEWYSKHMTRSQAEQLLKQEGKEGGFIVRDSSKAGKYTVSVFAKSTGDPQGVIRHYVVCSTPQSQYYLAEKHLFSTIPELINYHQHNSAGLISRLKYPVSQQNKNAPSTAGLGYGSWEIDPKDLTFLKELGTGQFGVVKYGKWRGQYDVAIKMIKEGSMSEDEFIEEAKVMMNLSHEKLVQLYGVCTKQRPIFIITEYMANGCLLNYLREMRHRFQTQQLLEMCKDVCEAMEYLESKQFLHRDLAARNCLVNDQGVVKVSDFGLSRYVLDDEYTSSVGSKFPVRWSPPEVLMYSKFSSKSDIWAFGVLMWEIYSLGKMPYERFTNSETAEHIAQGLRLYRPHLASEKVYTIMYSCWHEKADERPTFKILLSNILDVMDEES

“And” between values parts separate entries of the source, which are not always exact repeats. Identical values can stand only once.

In test [1] the target is T1, Tyrosine-protein kinase BTK (Homo sapiens, UniProt Q06187). In words: Inhibition of BTK in human whole blood assessed as suppression of BCR/anti-IgM/IgG-stimulated CD69 surface expression after 18 hrs with agitation by FITC-staining based FACS analysis. It is filed as tissue-based. In general terms: A flow cytometer gives signals particle by particle.
Test [2] concerns the target T1, Tyrosine-protein kinase BTK. In words: Inhibition of BTK in human Ramos-B cells assessed as suppression of BCR/anti-IgM-stimulated Ca2+ flux after 1 hr incubation in dark by FLIPR1 assay. On the technique in general: A change in cytosolic calcium serves as a functional read-out for many receptors and channels.
Test [3] shares this target.

In the case of `Cc1c(-c2c(Cl)cc(C(N)=O)c3[nH]c4c(c23)CC[C@H](C(C)(C)O)C4)cccc1-n1c(=O)c2cccc(F)c2n(C)c1=O`, the values for the IC50 in test [1], in test [2] and in test [3] were 160 nM, 19 nM and 1.5 nM, respectively.
Take `Cc1c(-c2ccc(C(N)=O)c3[nH]c4cc(C(C)(C)O)ccc4c23)cccc1-n1c(=O)c2cccc(F)c2n(C)c1=O`: the IC50 – broadly, the concentration at which inhibition is half-maximal – was 990 nM and 630 nM and 190 nM in test [1]; 19 nM in test [2].
Consider `Cc1c(-c2c(Cl)cc(C(N)=O)c3[nH]c4cc(C(C)(C)O)ccc4c23)cccc1-n1c(=O)c2cccc(F)c2n(C)c1=O`, for which the IC50 in test [1] is 90 nM and 320 nM; in test [2], 11 nM.
Regarding `Cc1c(-c2c(Cl)cc(C(N)=O)c3[nH]c4c(c23)CC[C@@H](C(C)(C)O)C4)cccc1-n1c(=O)c2cccc(F)c2n(C)c1=O`, the results for the IC50 in test [1], in test [2] and in test [3] were 350 nM, 84 nM and 2.6 nM, respectively.
